We go through one substance from PMC10330721, “Chemo-enzymatic synthesis and biological activity evaluation of propenylbenzene derivatives” (Frontiers in Microbiology, 2023).

This data set deals with human red blood cells (RBCs). In words: Haemolytic activity assay. As to conditions: 1 h, 37°C. Format: cell-based.

In the case of isoeugenol [5a], the Percentage of haemolysis by setting is: (10 µM) 1.379 ± 0.047%; (20 µM) 1.161 ± 0.047%; (40 µM) 1.753 ±0.134%; (60 µM) 1.881 ± 0.020%; (80 µM) 2.047± 0.080%; (100 µM) 2.185± 0.261%.
